How the values were obtained:
OAT3 [1] = molecular target: T1, OAT3 (Homo sapiens, UniProt Q8TCC7); experiment: Uptake of 3H-PAH into Xenopus oocytes injected with OAT3 cRNA; format: cell-based; parameters: expressed in transfected cells; host or cells: Xenopus oocytes injected with in vitro transcribed OAT3 cRNA; details: versus noninjected control oocytes; FIG. 2
T1 sequence (Q8TCC7 1-542): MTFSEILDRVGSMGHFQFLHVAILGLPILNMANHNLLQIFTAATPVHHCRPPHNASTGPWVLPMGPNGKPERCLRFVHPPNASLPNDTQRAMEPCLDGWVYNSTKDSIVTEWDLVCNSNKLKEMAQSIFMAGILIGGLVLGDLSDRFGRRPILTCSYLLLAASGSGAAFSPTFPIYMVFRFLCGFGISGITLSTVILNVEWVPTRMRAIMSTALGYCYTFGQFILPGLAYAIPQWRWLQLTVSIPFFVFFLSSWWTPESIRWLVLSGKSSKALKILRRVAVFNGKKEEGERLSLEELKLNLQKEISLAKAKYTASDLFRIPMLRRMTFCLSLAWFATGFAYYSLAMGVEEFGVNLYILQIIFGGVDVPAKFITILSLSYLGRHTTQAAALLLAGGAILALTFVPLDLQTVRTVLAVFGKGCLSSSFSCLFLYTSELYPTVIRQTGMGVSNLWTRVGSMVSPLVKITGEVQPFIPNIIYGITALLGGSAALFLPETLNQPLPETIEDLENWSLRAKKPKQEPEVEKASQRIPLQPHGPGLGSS
Experimental: To assess transport function of a specific transporter protein, it can be desirable to clone the cDNA and express the protein in cells that have low endogenous transport activity. Human OAT3 was cloned by PCR, fully sequenced, and subcloned into plasmids that can be used for expression in mammalian cells or Xenopus oocytes. For expression in Xenopus oocytes, in vitro OAT3 cRNA was prepared and injected into defoliculated oocytes.
To measure directly the uptake of possible substrates, an oocyte uptake assay can be performed in which uptake of compounds is measured by mass spectroscopy. For example, uptake of PAH can be measured. Oocytes injected with OAT3 cRNA can be incubated at 16-18° C. until maximal transporter expression is reached. Oocytes from the same batch, not injected with cRNA, can be used as a control. A 0.5 mM solution of PAH can be prepared in oocyte ringers (ND96) buffer (90 mM NaCl, 10 mM HemiNa HEPES, 2 mM KCl, 1 mM MgCl2, 1.8 mM CaCl2, pH adjusted to 7.4) containing 0.5% bovine serum albumin. The PAH is, for example, administered to pools of 8 oocytes for a 20 minute duration. Following the incubation, the pools of oocytes are washed with 0.5% BSA ND96 buffer and separated into subpools containing, for example, 4 oocytes each. […] Approximately 110 μl of lysate is removed from the tubes and placed in a 96-well plate and analyzed for PAH concentration by LC-MS-MS.

OAT3 [2] = molecular target: T1, OAT3; details: cited from earlier work

Compound: Nc1ccc(C(=O)NCC(=O)O)cc1 [Para-amino-hippurate]
- uptake into oocytes expressing OAT3 (OAT3 [1]): higher levels of ^3H-PAH uptake than noninjected controls
- Reported Affinity for OAT3 (OAT3 [2]): 0.2 mM

— patent US20050170392A1, “OAT3 transporters expressed in blood brain barrier cells” (priority 2004, published 2005)
